Results: article PMC3923439, “Anti-inflammatory properties of a novel peptide interleukin 1 receptor antagonist” (Journal of Neuroinflammation, 2014)

Target: T1, recombinant ectodomain of IL-1 receptor type I (IL-1RI) (UniProt P14778 18-336)
T1 construct: interleukin 1 receptor type I, ectodomain; No catalogue number, limits or tag are printed for the bought protein; also called sIL-1RI; soluble IL-1 receptor type I; source: bought: R&D Systems
T1 sequence (looked up): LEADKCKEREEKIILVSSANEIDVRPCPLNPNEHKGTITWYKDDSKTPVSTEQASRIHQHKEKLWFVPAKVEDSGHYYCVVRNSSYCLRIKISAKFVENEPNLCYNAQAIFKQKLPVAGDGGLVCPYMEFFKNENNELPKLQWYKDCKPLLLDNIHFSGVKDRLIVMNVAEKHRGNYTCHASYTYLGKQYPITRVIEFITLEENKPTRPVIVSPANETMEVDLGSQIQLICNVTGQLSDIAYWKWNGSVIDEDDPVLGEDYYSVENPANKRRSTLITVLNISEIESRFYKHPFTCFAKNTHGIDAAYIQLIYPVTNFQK
Test: SPR; Biacore 2000; about 2,500 to 3,000 RU of Ilantide-t, IL-1β or IL-1Ra immobilised on a CM4 sensor chip; IL-1RI ectodomain (or NCAM Ig1-Ig2 as negative control) injected; 25°C, 10 mM sodium phosphate pH 7.4, 150 mM NaCl; apparent Kd
Details: both partners purified

B1: interleukin 1 receptor antagonist (IL-1Ra), recombinant (ligand, UniProt P18510 26-177, looked up)
chain: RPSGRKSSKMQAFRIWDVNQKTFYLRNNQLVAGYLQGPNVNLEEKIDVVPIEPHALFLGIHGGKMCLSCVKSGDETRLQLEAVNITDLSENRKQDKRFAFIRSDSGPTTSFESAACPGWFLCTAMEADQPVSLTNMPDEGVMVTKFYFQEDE
notes: interleukin 1 receptor antagonist, recombinant; Not the drug anakinra, which was used only in cell and animal tests; also called IL-Ra; source: bought: R&D Systems
Q: How did the Kd turn out when B1 was run?
A: Its Kd is 48 nM.

Q: What about the koff of the same binder?
A: The koff was 0.00362 s⁻¹.

Q: And the kon?
A: The kon was 147000 M⁻¹ s⁻¹.
